Laboratory results published in ChEMBL document CHEMBL4834395, “Azole-Based Indoleamine 2,3-Dioxygenase 1 (IDO1) Inhibitors” (J Med Chem, 2021).

Protein sequences, listed by entry. Tags and fused reporters are not part of them.
UniProt P14902, whole entry: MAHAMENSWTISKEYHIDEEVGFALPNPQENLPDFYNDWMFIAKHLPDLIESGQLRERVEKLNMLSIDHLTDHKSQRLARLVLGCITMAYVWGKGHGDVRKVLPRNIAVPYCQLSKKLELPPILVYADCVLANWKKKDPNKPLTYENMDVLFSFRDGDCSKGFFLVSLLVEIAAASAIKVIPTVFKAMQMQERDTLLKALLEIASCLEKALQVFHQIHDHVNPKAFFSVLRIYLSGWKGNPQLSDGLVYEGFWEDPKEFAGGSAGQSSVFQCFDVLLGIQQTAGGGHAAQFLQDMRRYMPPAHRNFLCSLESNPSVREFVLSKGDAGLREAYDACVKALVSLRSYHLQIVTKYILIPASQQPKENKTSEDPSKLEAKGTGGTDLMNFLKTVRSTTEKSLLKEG

How the values were obtained:
[1] = molecular target: T1, Indoleamine 2,3-dioxygenase 1 (Homo sapiens, UniProt P14902); experiment: Inhibition of recombinant human IDO1 expressed in Escherichia coli Rosetta (DE3) cells assessed as reduction in kynurenine production using L-tryptophan as substrate incubated for 20 mins by HPLC analysis
[2] = molecular target: T1, Indoleamine 2,3-dioxygenase 1; experiment: Inhibition of recombinant human IDO1 expressed in Escherichia coli Rosetta (DE3) cells assessed as reduction in kynurenine production using L-tryptophan as substrate at pH 7.4 incubated for 20 mins by HPLC analysis
[3] = molecular target: T1, Indoleamine 2,3-dioxygenase 1; experiment: Inhibition of human IDO1 expressed in HEK293T cells assessed as reduction in kynurenine production using L-tryptophan as substrate incubated for 7 hrs by HPLC analysis; format: cell-based

Oc1ccc(Cl)cc1-c1c[nH]nn1 showed an IC50 [1] of 59 nM, an IC50 [2] of 34 nM and an IC50 [3] of 110 nM.
